Measured values taken from ChEMBL document CHEMBL1671722, “Comparative in vitro activity profiles of novel bis-indole antibacterials against gram-positive and gram-negative clinical isolates” (Antimicrob Agents Chemother, 2010).

Tested on: Escherichia coli
Experiment: Antimicrobial activity against Escherichia coli by broth microdilution method
Assay type: functional

Sequence: GENTAMICIN
- MIC: 0.5 µg/mL
